This series is classed as physicochemical. As to the method: The tests were conducted on 2±0.3 mg of polymer, placed in polypropyplene vials filled with 1 ml of deionized H2O and kept in a thermostatic bath at 37° C. for 33 days. At regular intervals the samples were withdrawn, the degradation medium was separated for evaluation of the pH while the degraded polymers were dried in a ventilated stove at 50° C. for 3 h and then analysed by gel permeation chromatography (GPC).
The pH measurements were conducted on the degradation means (deionized H2O) after pre-set times. In particular, the degradation means were withdrawn from the vials containing the polymer, prepared as reported in example 1, during the degradation tests in the previous example and the measurement was performed using a pH-meter on the samples just taken at a temperature of 37° C.

Consider polylactic-co-glycolic acid) [PLGA], for which the “pH of the degradation means (lower values / end of the test)” value is “approximately 4”.

The values are drawn from patent US20160082109A1, “COPOLYMER AND NANOPARTICLES OBTAINED THEREFROM FOR DRUG DELIVERY” (FONDAZIONE ISTITUTO ITALIANO DI TECNOLOGIA, priority 2013, published 2016).
